We go through 1 compound from patent publication US20240415819A1, “MACROCYCLIC COMPOUNDS AS PROTEASOME SUBUNIT BETA TYPE-5 INHIBITORS” (Lead Discovery Center GmbH, priority 2021, published 2024).

For experiment [1], the target named is β5 subunit of the human constitutive proteasome (CPS) (Homo sapiens, UniProt P28074). The experiment can be described thus: β5 inhibition assay, human constitutive proteasome (Suc-LLVY-AMC). In kind it is biochemical. The settings on record: read-out: CPS, IC50 class, Suc-LLVY-AMC substrate. The method, then: The enzymatic activity of the β5 subunit of the human constitutive proteasome (CPS) is analyzed. In another assay, which differs from the assay of the human constitutive proteasome only in using the human immunoproteasome (IPS) the enzymatic activity of the β5 subunit of the human immunoproteasome (IPS) is analyzed. […] Inhibition is indicated as IC50 [nM] (“-”=not measured).

For experiment [2], the target named is β5 subunit of the human immunoproteasome (IPS) (Homo sapiens, UniProt P28062). The experiment can be described thus: β5 inhibition assay, human immunoproteasome (Suc-LLVY-AMC). Type of experiment: biochemical. The settings on record: read-out: IPS, IC50 class, Suc-LLVY-AMC substrate. As for the experimental part: The enzymatic activity of the β5 subunit of the human constitutive proteasome (CPS) is analyzed. In another assay, which differs from the assay of the human constitutive proteasome only in using the human immunoproteasome (IPS) the enzymatic activity of the β5 subunit of the human immunoproteasome (IPS) is analyzed. Incubation of the enzyme with its fluorogenic substrate Suc-LLVY-AMC leads to liberation of the fluorescent dye AMC which can be measured with a suitable plate reader. • 100 mM HEPES pH7.5 • 50 mM NaCl • 0.02% SDS • 1 mM DTT (add fresh) • Victor X5 (Perkin Elmer) • Label: Umbeliferone (0.1s) • Excitation wavelength: 355 nm • Emission wavelength: 460 nm • 4 μl human cPS or IPS enzyme in assay buffer (final assay concentration 1 nM) or 4 μl assay buffer for negative controls • Compound addition via acoustic dispenser (Echo 520, Labcyte) • Mix and incubate @ RT for 10 min • 4 μl Suc-LLVY-AMC substrate (final assay concentration 22.6 μM) • Mix and incubate @ RT for 4 h (dark) • Stop reaction with 4 μl Bortezomib (final assay concentration 1 μM) • 15 min @ RT • Measure (Excitation 355 nm; Emission 460 nm)

The test system of a further experiment is HT-29 cells. The experiment is described as follows: CellTiter-Glo luminescent cell viability assay with HT-29 cells (72h incubation). Type of experiment: cell-based, human. The settings on record: read-out: CTG HT29. The method, then: Cell Titer Glo Viability Assay with HT-29 Cells (72h Incubation) The CellTiter-Glo Luminescent Cell Viability Assay (Promega) is a homogeneous method of determining the number of viable cells in culture. It is based on quantification of ATP, indicating the presence of metabolically active cells. On day 1 400 HT-29 cells per well are seeded in white 384well plates (Greiner, #781080) in 25 μl cell culture medium (DMEM (PAN-Biotech #P04-03590)+10% FCS+glutamine). After incubation for 24 h at 37° C./5% CO2 compounds or DMSO are added at different concentrations by Echo Liquid Handling Technology. Cells are further incubated in humidified chambers for 72 h at 37° C. and 5% CO2. Cells treated with the compound vehicle DMSO are used as positive controls and cells treated with 10 μM Staurosporine serve as negative controls. At day 5-72h after compound addition—the CellTiter Glo Reagent is prepared according to the instructions of the kit (Promega Inc.): Reagent is mixed 1:1 with cell culture medium. […] Following incubation the luminescence is recorded on a Victor microplate reader (Perkin Elmer) using a 200 ms integration time. The data is then analyzed with Excel using the XLFIT Plugin (dose response Fit 205) for IC50-determination. As quality control the Z′-factor is calculated from 16 positive and negative control values. […] (“-”=not measured).

The test system of experiment [3] is A549 (human lung carcinoma cell line). The experiment can be described thus: Glo assay of A549 cells (Table 3; ProteasomeGlo plating scheme). Type of experiment: cell-based. The settings on record: read-out: PGLo A549. From the text:
Inhibition is indicated as IC50 [nM] (“-”=not measured). […] • Chymotrypsin-Like Cell-Based Proteasome-GloTM Assay (Promega; […]) • Cell culture 384-well plates (Greiner BioOne; 781080) • Dispensing cassette, MultiDrop Standard tube dispensing cassette (Thermo Scientific; 24072670) • DPBS (Pan BioTech; P04-36500) • Cell culture 384-well plates (Greiner BioOne; 781080) • CPD source plate: diamond-shape plate (Labcyte; LP-0200) • Intermediate plate (Labcyte; P-05525) [table] • a. Remove the plates with cells from the incubator. • b. Take all the plates including the compound plate, intermediate plate and Staurosporine plate to the ECHO. • c. Click on “Open” in the ECHO software and select the protocol “QLI5_25ul_30 uM-Grenier”. • d. Follow the on-screen prompts and instructions once you click “Start” to insert the compound plate, intermediate plate and destination plates. • e. Change the final number of destination plates on the program. • f. Follow the on-screen prompts and instructions once you click “Start” to load the Staurosporine and destination plates. • g. Once all the compounds, DMSO and Staurosporine have been transferred, place the destination plates in a wet tissue box. • h. Place the destination plates back into the incubator and incubate at 37° C., 5% CO2 for 105 minutes. • i. […] Measure the luminescence read-out using the Viktor and the protocol “Luminescence_384Well_0.2 sec”. […]

For `Cc1ccc2cc1CNC(=O)[C@H](CCc1ccccc1)NC(=O)[C@@H](NC(=O)Cc1nc(-c3cccnc3)n[nH]1)CC(=O)N1CCCC(CCO2)C1` (stereo partly shown), the IC50 in experiment [1] was below 100 nM; in experiment [2], below 100 nM; in the experiment with HT-29 cells, below 100 nM; in experiment [3], 100 to 500 nM.
